Test results reported in patent US20240174727A1, “LONG-ACTING NATRIURETIC PEPTIDES AND USES THEREOF” (Eli Lilly and Company, priority 2022, published 2024).

Target: T1, human NPRA (Homo sapiens, UniProt P16066)
T1 construct: Full-Length cDNA Cloning and Generation of Cell Lines Overexpressing Natriuretic Peptide Receptors (NPRs); expressed in transfected cells; host or cells: Jump-in T-Rex HEK293 cells, pJTI R4 CMV-TO MCS pA vector, tetracycline induction
T1 sequence (P16066 33-1061): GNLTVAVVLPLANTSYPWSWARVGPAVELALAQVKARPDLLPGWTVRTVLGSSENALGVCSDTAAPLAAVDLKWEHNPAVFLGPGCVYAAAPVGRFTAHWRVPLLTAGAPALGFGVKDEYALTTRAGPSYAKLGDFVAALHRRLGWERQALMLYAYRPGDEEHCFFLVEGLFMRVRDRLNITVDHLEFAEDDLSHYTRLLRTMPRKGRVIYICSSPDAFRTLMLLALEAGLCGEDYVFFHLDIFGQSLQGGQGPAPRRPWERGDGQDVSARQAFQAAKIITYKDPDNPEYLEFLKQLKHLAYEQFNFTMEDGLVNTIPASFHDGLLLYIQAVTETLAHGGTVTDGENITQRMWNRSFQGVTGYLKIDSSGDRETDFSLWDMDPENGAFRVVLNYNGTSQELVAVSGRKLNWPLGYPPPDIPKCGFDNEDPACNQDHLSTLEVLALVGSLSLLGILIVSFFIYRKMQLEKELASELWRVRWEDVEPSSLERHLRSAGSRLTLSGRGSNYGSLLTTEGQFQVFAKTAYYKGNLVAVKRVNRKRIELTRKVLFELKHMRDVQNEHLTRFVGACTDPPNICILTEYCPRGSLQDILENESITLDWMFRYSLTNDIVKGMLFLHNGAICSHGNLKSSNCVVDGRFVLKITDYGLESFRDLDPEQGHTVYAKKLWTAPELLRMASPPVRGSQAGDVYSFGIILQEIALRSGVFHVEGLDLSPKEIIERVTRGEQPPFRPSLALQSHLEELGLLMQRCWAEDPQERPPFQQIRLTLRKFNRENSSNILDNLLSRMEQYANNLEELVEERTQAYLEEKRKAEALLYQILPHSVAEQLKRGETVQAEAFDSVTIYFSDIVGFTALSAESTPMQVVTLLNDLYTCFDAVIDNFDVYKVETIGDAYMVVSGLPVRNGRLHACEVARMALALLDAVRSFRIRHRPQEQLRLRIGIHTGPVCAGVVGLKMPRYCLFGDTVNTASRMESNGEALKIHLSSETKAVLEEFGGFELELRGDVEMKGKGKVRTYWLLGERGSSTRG
Assay: Human NPRA cGMP activity assay (HTRF) in HEK293 cells overexpressing NPRA
Assay type: cell-based
Method: All sequences were verified by full-length sequencing performed by ACGT DNA Sequencing Services (Wheeling, IL). The target cDNA was cloned into pJTI R4 CMV-TO MCS pA vector and then co-transfected with pJT1R4 Int vector into Jump-in™ T-Rex™ HEK293 cells for mammalian inducible expression using Jump-in™ T-Rex™ HEK293 kit and Lipofectamine LTX and Plus Reagent following manufacturer's protocols, as briefly described below.
Jump-in™ T-Rex™ HEK293 cells were plated in a BioCOAT® poly-D-lysine coated 6-well plate (Becton Dickinson, cat no. 354413) at 1 million cells/well in 2 mL culture medium and incubated for 18 h at 37° C. and 5% CO2 to 50-70% confluence. A cDNA mix was made in a 50 mL tube by adding 1.5 μg target cDNA, 1.5 μg pJT1R4 Int vector, 3 μL Plus Reagent, and 300 μL Opti-MEM I sequentially into the tube. A reagent mix was made in a separate 50 mL tube by adding 7.5 μL Lipofectamine LTX into 300 μL Opti-MEM I. The mixtures were incubated for 5 min at room temperature. The cDNA mix was then transferred into the reagent mix, mixed well, and incubated for additional 30 min at room temperature. A 500 μL of cDNA/Lipofectamine complex was then transferred to the wells of the cell plate in which the culture medium was changed to 2 mL of transfection medium containing DMEM with 4.5 g/L D-glucose supplemented with 10% FBS-HI and 20 mM HEPES. Transfected cells were cultured for 48 h in an incubator at 37° C. and 5% CO2. A subclone or pool from each overexpressing cell line was maintained in culture medium with the addition of 2 mg/mL G418 sulfate for the clone selection based on its built-in resistance to G418 sulfate for at least 3 weeks with medium changed every 2-3 days.
NPRs were overexpressed in T-Rex™ HEK293 cells following the induction with 300 ng/mL tetracycline in culture medium for 48 h. Induced cell lines in an exponential growth phase were treated with 0.05% trypsin-EDTA for a few seconds at room temperature, harvested in cell medium containing FBS to neutralize the trypsin, counted, and cryopreserved at the density of 2 million cells/mL in cell preservation solution containing FBS-HI with 5% DMSO. Cryopreserved cells were stored at −80° C. for a few days prior to transferring to a liquid nitrogen tank. Induced cell lines were then used for suspension assays to measure the activity of polypeptides to stimulate cGMP production in cGMP assays or for the preparation of cell membranes to measure the binding activity of polypeptides in competitive radioligand binding assays, as described below.
Test polypeptides were added starting at 10 μM concentration and at 10-fold decreasing concentrations to obtain 8-point concentration-response curves (i.e., 10 μM to 1 pM). The quantity of cGMP generated was detected using HTRF® technology and normalized to maximum amount produced by 100 nM amidated rat ANP and the minimum amount produced by assay buffer. Detailed steps are outlined below.
Stock solutions of test polypeptides (2 mM) dissolved in DMSO were first diluted 100-fold in assay buffer containing HBSS with Ca^2+ and Mg^2+, 5 mM HEPES, 0.5 mM IBMX, and 0.1% BSA or 0.1% casein (pH 7.4). The polypeptides were further serially diluted in 1:10 dilution steps in assay buffer containing 0.1% BSA or 0.1% casein to generate 8-point 2× working stock solutions ranging from 20 μM to […].
A 10 μL cell suspension containing 4000 cells was plated in Costar® half-area white opaque 96-well plates (Corning, cat no. 3693). Then 10 μL of assay buffer (basal activity), 200 nM of amidated rat ANP (maximum activity) or 2× working stock solutions of test polypeptides were transferred into the plate. Final concentration of DMSO in each well was 0.5%. The plate was shaken for 15 sec and then incubated for 40 min at room temperature.
The cGMP generated was measured using cGMP kit following the manufacturer's directions, as described below.

[1] = cGMP Assay (EC50, pM) w/Casein hNPRA, assay buffer with 0.1% casein

SMILES	EC50 (cGMP Assay (EC50, pM) w/BSA hNPRA, assay buffer with 0.1% BSA) [pM]	EC50 [1] [pM]
CC[C@H](C)[C@@H]1NC(=O)[C@H](CCCNC(=N)N)NC(=O)[C@H](CC(=O)O)NC(=O)[C@H]([C@@H](C)CC)NC(=O)[C@H](CCCCN)NC(=O)CNC(=O)CNC(=O)[C@H](Cc2ccccc2)NC(=O)[C@@H](NC(=O)[C@H](CO)NC(=O)[C@H](CO)NC(=O)[C@H](CCCNC(=N)N)NC(=O)CNC(=O)[C@H](CCCCN)NC(=O)[C@H](CCC(=O)O)NC(=O)CNC(=O)[C@H](CCCCN)NC(=O)[C@H](CCC(=O)O)NC(=O)[C@H](CCCCN)NC(=O)[C@H](CCC(=O)O)NC(=O)[C@H](CCCCN)NC(=O)[C@H](CCC(=O)O)NC(=O)CC[C@H](NC(=O)CCCCCCCCCCCCCCCCCCC(=O)O)C(=O)O)CSSC[C@@H](C(=O)N2CCC[C@H]2C(=O)N[C@@H](CO)C(=O)N[C@@H](Cc2ccccc2)C(=O)N[C@@H](CCCNC(=N)N)C(=O)N[C@@H](Cc2c[nH]cn2)C(=O)NCC(=O)NCC(=O)N2CCC[C@H]2C(=O)N[C@@H](CO)C(=O)N[C@@H](CO)C(=O)NCC(=O)N[C@@H](C)C(=O)N2CCC[C@H]2C(=O)N2CCC[C@H]2C(=O)N2CCC[C@H]2C(=O)N[C@@H](CO)C(N)=O)NC(=O)CNC(=O)[C@H](CC(C)C)NC(=O)CNC(=O)[C@H](CO)NC(=O)[C@H](Cc2ccc(O)cc2)NC(=O)[C@H](Cc2c[nH]cn2)NC(=O)CNC1=O [Example 45]	25200	–
CC[C@H](C)[C@@H]1NC(=O)[C@H](CCCNC(=N)N)NC(=O)[C@H](CC(=O)O)NC(=O)[C@H]([C@@H](C)CC)NC(=O)[C@H](CCCCN)NC(=O)CNC(=O)CNC(=O)[C@H](Cc2ccccc2)NC(=O)[C@@H](NC(=O)[C@H](CO)NC(=O)[C@H](CO)NC(=O)[C@H](CCCNC(=N)N)NC(=O)CNC(=O)[C@H](CCCCN)NC(=O)[C@H](CCC(=O)O)NC(=O)[C@H](CCCCN)NC(=O)[C@H](CCC(=O)O)NC(=O)[C@H](CCCCN)NC(=O)[C@H](CCC(=O)O)NC(=O)CC[C@H](NC(=O)CCCCCCCCCCCCCCCCCCC(=O)O)C(=O)O)CSSC[C@@H](C(=O)N2CCC[C@H]2C(=O)N[C@@H](CO)C(=O)N[C@@H](Cc2ccccc2)C(=O)N[C@@H](CCCNC(=N)N)C(=O)N[C@@H](Cc2c[nH]cn2)C(=O)N[C@@H](CCCCN)C(=O)NCC(=O)N2CCC[C@H]2C(=O)N[C@@H](CO)C(=O)N[C@@H](CO)C(=O)NCC(=O)N[C@@H](C)C(=O)N2CCC[C@H]2C(=O)N2CCC[C@H]2C(=O)N2CCC[C@H]2C(=O)N[C@@H](CO)C(N)=O)NC(=O)CNC(=O)[C@H](CC(C)C)NC(=O)CNC(=O)[C@H](CO)NC(=O)[C@H](Cc2ccc(O)cc2)NC(=O)[C@H](Cc2c[nH]cn2)NC(=O)CNC1=O [Example 47]	–	299
CC[C@H](C)[C@@H]1NC(=O)[C@H](CCCNC(=N)N)NC(=O)[C@H](CC(=O)O)NC(=O)[C@H]([C@@H](C)CC)NC(=O)[C@H](CCCNC(=N)N)NC(=O)CNC(=O)CNC(=O)[C@H](Cc2ccccc2)NC(=O)[C@@H](NC(=O)[C@H](CO)NC(=O)[C@H](CO)NC(=O)[C@H](CCCNC(=N)N)NC(=O)[C@H](CCC(=O)O)NC(=O)[C@H](CCCCN)NC(=O)[C@H](CCC(=O)O)NC(=O)CNC(=O)[C@H](CCCCN)NC(=O)[C@H](CCC(=O)O)NC(=O)[C@H](CCCCN)NC(=O)[C@H](CCC(=O)O)NC(=O)[C@H](CCCCN)NC(=O)[C@H](CCC(=O)O)NC(=O)CC[C@H](NC(=O)CCCCCCCCCCCCCCCCCCC(=O)O)C(=O)O)CSSC[C@@H](C(=O)N2CCC[C@H]2C(=O)N[C@@H](CO)C(=O)N[C@@H](Cc2ccccc2)C(=O)N[C@@H](CCCNC(=N)N)C(=O)N[C@@H](Cc2c[nH]cn2)C(=O)NCC(=O)NCC(=O)N2CCC[C@H]2C(=O)N[C@@H](CO)C(=O)N[C@@H](CO)C(=O)NCC(=O)N[C@@H](C)C(=O)N2CCC[C@H]2C(=O)N2CCC[C@H]2C(=O)N2CCC[C@H]2C(=O)N[C@@H](CO)C(N)=O)NC(=O)CNC(=O)[C@H](CC(C)C)NC(=O)CNC(=O)[C@H](CO)NC(=O)[C@H](Cc2ccc(O)cc2)NC(=O)[C@H](Cc2c[nH]cn2)NC(=O)CNC1=O [Example 49]	–	299
CC[C@H](C)[C@@H]1NC(=O)[C@H](CCCNC(=N)N)NC(=O)[C@H](CC(=O)O)NC(=O)[C@H]([C@@H](C)CC)NC(=O)[C@H](CCCNC(=N)N)NC(=O)CNC(=O)CNC(=O)[C@H](Cc2ccccc2)NC(=O)[C@@H](NC(=O)[C@H](CO)NC(=O)[C@H](CO)NC(=O)[C@H](CCCNC(=N)N)NC(=O)CNC(=O)[C@H](CCCCN)NC(=O)[C@H](CCC(=O)O)NC(=O)CNC(=O)[C@H](CCCCN)NC(=O)[C@H](CCC(=O)O)NC(=O)[C@H](CCCCN)NC(=O)[C@H](CCC(=O)O)NC(=O)[C@H](CCCCN)NC(=O)[C@H](CCC(=O)O)NC(=O)CC[C@H](NC(=O)CCCCCCCCCCCCCCCCCCC(=O)O)C(=O)O)CSSC[C@@H](C(=O)N2CCC[C@H]2C(=O)N[C@@H](CO)C(=O)N[C@@H](Cc2ccccc2)C(=O)N[C@@H](CCCNC(=N)N)C(=O)N[C@@H](Cc2c[nH]cn2)C(=O)N[C@@H](CCCCN)C(=O)NCC(=O)NCC(=O)N2CCC[C@H]2C(=O)N[C@@H](CO)C(=O)N[C@@H](CO)C(=O)NCC(=O)N[C@@H](C)C(=O)N2CCC[C@H]2C(=O)N2CCC[C@H]2C(=O)N2CCC[C@H]2C(=O)N[C@@H](CO)C(N)=O)NC(=O)CNC(=O)[C@H](CC(C)C)NC(=O)CNC(=O)[C@H](CO)NC(=O)[C@H](Cc2ccc(O)cc2)NC(=O)[C@H](Cc2c[nH]cn2)NC(=O)CNC1=O [Example 50]	–	614
